From patent publication US20050239754A1, “S-[2-[(1-Iminoethyl)amino]ethyl]-2-methyl-L-cysteine salicylate monohydrate crystalline salt” (priority 2003, published 2005)

Substance: S-[2-[(1-Iminoethyl)amino]ethyl]-2-methyl-L-cysteine salicylate monohydrate
- Water absorbed in moisture balance measurement (80% RH): less than half of one percent
- Hygroscopicity (moisture balance / DVS moisture sorption): non-hygroscopic
